For 60 compounds, inhibition results are on record in PubChem BioAssay AID504634 (The Scripps Research Institute Molecular Screening Center, 2011).

The chains behind the UniProt entries cited, without tags or fusion partners.
UniProt P47898, whole entry, looked up: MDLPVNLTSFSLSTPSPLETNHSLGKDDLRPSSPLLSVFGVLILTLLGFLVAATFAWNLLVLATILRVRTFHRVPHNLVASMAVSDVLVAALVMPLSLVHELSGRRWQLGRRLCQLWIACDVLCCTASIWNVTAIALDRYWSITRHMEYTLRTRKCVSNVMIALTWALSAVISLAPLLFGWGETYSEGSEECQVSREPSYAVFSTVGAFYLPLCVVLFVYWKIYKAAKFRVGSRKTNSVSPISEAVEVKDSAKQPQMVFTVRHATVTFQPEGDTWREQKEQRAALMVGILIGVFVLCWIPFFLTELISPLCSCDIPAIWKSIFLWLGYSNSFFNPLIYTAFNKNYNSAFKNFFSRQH

A word on the inhibition: it is the change of the read-out against control, counted positive when it falls.

Molecules are shown by their SMILES. The entries are a selection whose mix differs from that of the whole data set. Activity calls are given as the source filed them. Cut-off read from the data, not from the text of the source: active = inhibition mostly above about 23% (no sharp cut-off); inactive = mostly below about 18%.

This assay deals with 5-hydroxytryptamine receptor 5A (Homo sapiens) (UniProt P47898). Kind of assay: HTR5A inverse agonists in luminescence cell assay, primary screen, counter-screen for OPRM1-OPRD1 heterodimer inverse agonist project, full-deck HTS (AID 504634).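 Note: 0% = cells with DMSO and 100% = no-cell wells with DMSO.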 Particulars: HTR5A cell line, inverse agonism, at 9.3 µM, active compounds read high.
Regarding `FC(F)(F)c1ccc2c(c1)ncn2C1CCN(Cc2nnnn2C2CCCCC2)CC1`, the inhibition is inactive: -15.8%. Under `CCOC(=O)C1=C(C)N=C2SCCC(=O)N2[C@@H]1/C=C/c1ccccc1` stands inactive: 14.1%. Under `COC(=O)[C@H](CC(C)C)NC(=O)Cn1cnc2c(OCc3ccccc3)ncnc21` stands inactive: 2.72%; under `COc1ccc(-c2csc(NCCn3c(C)nc4cc(C(F)(F)F)ccc43)n2)cc1`, inactive: -27.2%. With `O=C(Cn1c(-c2cncs2)nc2ccccc21)NC1CCCC1`, the inhibition was inactive: -30.3%. As for `CCN(CC)CCn1c(NCc2cc(OC)ccc2OC)nc2ccccc21`, the inhibition is inactive: 13.6%.

With `N#CCC(=O)N1CCn2c1nc1ccccc12`, the inhibition was inactive: 1.8%. For `O=C(Cn1c(CO)nc2ccccc21)NC1CCCCCC1`, the inhibition is inactive: 1.55%. With `CCOC(=O)CSc1nc2ccccc2n1CC(=O)NC(C)(C)C`, the inhibition was inactive: -15.9%. Turning to `O=C(Cn1cnc2ccccc21)Nc1cccc(S(=O)(=O)N2CCCC2)c1`, the inhibition was inactive: -19.3%. Regarding `CCN(CC)CCn1cnc2c1c(=O)n(CCOC(=O)c1cc(OC)c(OC)c(OC)c1)c(=O)n2C`, the inhibition is inactive: -7.35%.

Consider `Cn1c(=O)c2c(ncn2CCN(CCO)Cc2ccccc2)n(C)c1=O`, for which the inhibition was inactive: 15.2%. In the case of `C=CCOC(=O)C1=C(C)N=C2SCCC(=O)N2C1/C=C/c1ccccc1` (stereo not given), the inhibition was inactive: 2.87%.

On to `O=[As](O)(c1cccc(O)c1)c1cccc(O)c1`, for which the inhibition is inactive: -4.36%. As to `COc1ccc(CNc2nc3ccccc3n2CCN2CCOCC2)cc1`, the inhibition is inactive: -5.45%. Consider `Cc1cccc(OCC(=O)OC2CN3CCC2CC3)c1` (stereo not given), for which the inhibition was inactive: 20.2%. As to `CCc1ccc(NC(=O)Cn2c3[n+](c4c(F)c(F)ccc42)CCCCC3)cc1`, the inhibition was inactive: 9.81%. On to `CC(C)(C)NC(=O)Cn1c(-c2nonc2N)nc2ccccc21`, for which the inhibition is inactive: 14.7%. For `O=[N+]([O-])c1ccc2c(c1)nc1n2CCN(C2CCCCC2)C1`, the inhibition is inactive: -1.64%. As for `COC(=O)Cn1c(=N)n(CCN2CCCCC2)c2ccccc21`, the inhibition is inactive: 0.67%. For the compound `Cn1c(=O)c2ncn(CC(=O)NCCOc3ccccc3)c2n(C)c1=O`, the inhibition was inactive: 18.4%. For `CC(C(=O)Nc1ccccc1C(=O)O)n1c(C(F)(F)F)nc2ccccc21` (stereo not given), the inhibition is inactive: 4.46%.

`CCN(CC)CCn1cnc2c1c(=O)[nH]c(=O)n2Cc1ccccc1`: the inhibition is inactive: -6.79%. For `Cc1ccc(S(=O)(=O)c2nnn3c2nc(NC2CCN(Cc4ccccc4)CC2)c2ccccc23)cc1C`, the inhibition is inactive: -13.6%. On to `CN1CCC(N(C)c2nc(-c3ccccc3)nc3ccccc23)CC1`, for which the inhibition was inactive: 4.38%. For the compound `C[C@H](NC(=O)N1CCn2c1nc1ccccc12)C(=O)NCC1CCCO1` (stereo not given in full), the inhibition is inactive: 2.09%. Take `CCC(=O)Nc1ccc(NC(=S)NC(=O)/C=C/c2ccco2)cc1`: the inhibition is inactive: 0.4%. Consider `CC(C(=O)N1CCc2ccccc21)n1cnc2c1c(=O)n(C)c(=O)n2C` (stereo not given), for which the inhibition is inactive: 0.44%. Under `CN1CCN(C(=O)Cn2c(C(F)(F)F)nc3ccccc32)CC1` stands inactive: 21.1%; under `c1ccc(Cn2c(CNc3nc4ccccc4n3CCN3CCCCC3)nc3ccccc32)cc1`, inactive: -10.5%; under `O=C(c1ccccc1)N1CCn2c1nc1ccccc12`, inactive: 8.55%. With `O=C(OC1CN2CCC1CC2)c1ccc(Cl)cc1` (stereo not given) the figure was inactive: 11.8%; with `Cn1cccc1/C=N/NC(=O)Cn1cnc2ccccc21`, inactive: 4.68%. For `COCCCNC(=O)Cn1cnc2c(NCc3ccccc3)ncnc21`, the inhibition was inactive: 3.09%.

On to `Cn1c(=O)c2c(ncn2CC(=O)Nc2cccc(S(=O)(=O)Nc3ccccc3F)c2)n(C)c1=O`, for which the inhibition was inactive: 1.48%.

Consider `CS(=O)(=O)c1ccc(Cl)c(NC(=O)COC(=O)C(O)(c2ccccc2)c2ccccc2)c1`, for which the inhibition is inactive: 14.5%.

`C(=N\c1nc2ccccc2n1CCN1CCOCC1)/c1cccs1`: the inhibition was inactive: -15.1%. Turning to `CC(C)C(NS(=O)(=O)c1cccc2nsnc12)C(=O)N1CCn2c1nc1ccccc12` (stereo not given), the inhibition is inactive: -17%. As for `Cc1nc2cc(C(F)(F)F)ccc2n1CCNc1nc(-c2ccc([N+](=O)[O-])c(Cl)c2)cs1`, the inhibition is inactive: 10.9%.

Turning to `CCC(C)N(C(=O)Cn1cnc2c1c(=O)n(C)c(=O)n2C)C1CCS(=O)(=O)C1` (stereo not given), the inhibition is inactive: 3.44%. On to `OCCNc1nc2ccccc2n1CCN1CCCCC1`, for which the inhibition is inactive: -1.47%. As to `Cc1nc2ccccc2n1CC(=O)NCCN1CCOCC1`, the inhibition is inactive: 2.28%. For the compound `O=[As](O)(O)c1cccnc1`, the inhibition is inactive: -7.33%. Turning to `Cn1c(=O)c2c(ncn2CC(=O)N2CCCCCC2)n(C)c1=O`, the inhibition is inactive: 12.8%. As for `CN(C)C(=O)Cn1c(=O)n(C)c2ccccc21`, the inhibition was inactive: 2.79%.

With `O=C(Cn1cnc2ccccc21)N/N=C/c1cccnc1`, the inhibition was inactive: 5.27%. With `CCOC(=O)CC[C@H](NC(=O)Cn1cnc2c(OCc3ccccc3)ncnc21)C(=O)OCC` the figure was inactive: -21.6%; with `COc1ccc(CNC(=O)[C@H](C)NC(=O)N2CCn3c2nc2ccccc23)cc1`, inactive: 0.27%. Consider `COc1cccc(CNC(=O)[C@H](CC(C)C)NC(=O)N2CCn3c2nc2ccccc23)c1`, for which the inhibition was inactive: -8.35%.

Regarding `CCOP(=O)(Nc1cccc2ccccc12)OCC`, the inhibition was inactive: 1.76%.

`COc1cccc(CNc2nc3ccccc3n2CCN2CCCCC2)c1`: the inhibition was inactive: 4.29%. For the compound `O=C(Nc1ccccc1)N1CCn2c(nc3ccccc32)C1`, the inhibition was inactive: 2.18%. `O=C(Nc1ccc2c(c1)nc1n2CCN(C2CCCCC2)C1)c1ccco1`: the inhibition is inactive: -14%.

On to `O=C(CSc1nc2ccccc2n1CC(=O)N1CCCC1)Nc1ccc2c(c1)OCO2`, for which the inhibition was inactive: -13.3%. For `O=C(CCCCCNC(=O)N1CCn2c1nc1ccccc12)NCc1ccccc1Cl`, the inhibition was inactive: 23.4%. As to `O=C(Cn1c(-c2ccccn2)nc2ccccc21)N/N=C/c1ccccn1`, the inhibition was inactive: -10.4%. For `O=C(Cn1c(NCCO)nc2ccccc21)NCC1CCCO1` (stereo not given), the inhibition was inactive: 11%. With `Cc1ccc2c(c1)C1CN(C)CCC1N2S(=O)(=O)c1cc(C(F)(F)F)ccc1Cl` (stereo not given), the inhibition was inactive: -23.4%. For `O=C(Cn1c(S(=O)(=O)Cc2ccccc2)nc2ccccc21)N1CCCCC1`, the inhibition was inactive: -45.2%. As to `COCCN1CCn2c(nc3cc(NC(=O)c4cccs4)ccc32)C1`, the inhibition was inactive: -5.16%.
